Experimental findings from ChEMBL document CHEMBL5316302, “Deciphering Nonbioavailable Substructures Improves the Bioavailability of Antidepressants by Serotonin Transporter” (J Med Chem, 2023) are described below.

Each structure is given as a SMILES string.

This series in a line: Clearance in Beagle dog at 1 mg/kg, iv measured upto 24 hrs by LC-MS/MS analysis. It is filed as ADME, organism-based, Canis lupus familiaris. To be noted: in vivo.

`N#Cc1ccc2[nH]cc(CCCCN3CCN(c4ccc5oc(C(N)=O)cc5c4)CC3)c2c1` [VILAZODONE] gave a CL of 347 mL/min/kg.
